# Measured affinities in a library of Ab-14 heavy chain variants

Data: MIT Lincoln Laboratory AlphaSeq set, Engelhart et al. 2022, doi:10.1038/s41597-022-01779-4, as distributed in FLAb.

All variants were tested on one target, the spike HR2 peptide PDVDLGDISGINAS (SARS-CoV-2).

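AAYL49 was designed without a model: most single CDR substitutions and a random sample of double and triple ones. In AlphaSeq, yeast of one mating type display the scFv and yeast of the other type display the target. Pairs that bind mate more often; barcode pairs of the diploids are counted by sequencing. The ratio of observed to expected reads was calibrated, replicate by replicate, on BCL2-family standards whose Kd was known from biolayer interferometry. Mating was done three times.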

Parent: Ab-14, a human scFv built as VH, a 15-residue (Gly4Ser)3 linker, VL. Only the CDRs of the heavy chain vary.
VH: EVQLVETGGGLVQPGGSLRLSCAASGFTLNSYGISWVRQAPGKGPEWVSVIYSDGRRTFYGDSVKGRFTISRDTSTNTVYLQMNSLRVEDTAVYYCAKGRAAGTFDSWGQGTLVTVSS
VL: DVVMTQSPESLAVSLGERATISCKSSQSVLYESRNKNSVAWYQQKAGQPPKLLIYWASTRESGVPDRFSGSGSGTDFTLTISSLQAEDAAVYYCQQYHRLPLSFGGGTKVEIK

Variants are written as CDR1, CDR2 and CDR3 of the heavy chain (limits as in the source). Parent: GFTLNSYGIS, VIYSDGRRTFYGDSVK, GRAAGTFDS.
Numbers give log10(Kd / nM), so 0 is 1 nM and 3 is 1 µM. Smaller is tighter.
Averages over replicates are reported, and they cover detected replicates only.
"not detected" marks a missing value. The strain was present, yet no cells mated with the target were sequenced in any replicate, which points to weak or no binding.
Three control strains display no target. For library AAYL49, 15% of the pairings with them gave a signal, with a median of 4.06 and one signal in twenty below 2.83, so weak values seen in few replicates may be background. The control count says in how many pairings with the empty strains this scFv gave a signal.

{"CDR-H1": "GFTLNSYGTS", "CDR-H2": "VIYSIGRRTFYGDSVK", "CDR-H3": "GRAAGTFAS", "mean log10 Kd (nM)": "2.83", "seen in": "1/3", "control signals": "1/9"}
{"CDR-H1": "GFTQNSYGIS", "CDR-H2": "VIYSDGRRTFYGDSVT", "CDR-H3": "RRAAGTFDS", "mean log10 Kd (nM)": "4.44", "seen in": "1/3", "control signals": "0/9"}
{"CDR-H1": "GFTLNSYGIA", "CDR-H2": "VIYSDGRRTFYGDSVK", "CDR-H3": "GRAAPTFDD", "mean log10 Kd (nM)": "4.58", "seen in": "3/3", "control signals": "5/9"}
{"CDR-H1": "GFTVNSYGIS", "CDR-H2": "VIYSDGRRTFYGDSVA", "CDR-H3": "GRAAGTFDW", "mean log10 Kd (nM)": "not detected", "seen in": "0/3", "control signals": "0/9"}
{"CDR-H1": "GFTLNSYGRS", "CDR-H2": "VIYSDGRRTFYGDIVK", "CDR-H3": "GRAAGTFDN", "mean log10 Kd (nM)": "3.96", "seen in": "2/3", "control signals": "0/9"}
{"CDR-H1": "GFTLNSYGIS", "CDR-H2": "VGYSDGRRTFYGDSVK", "CDR-H3": "ARAAGYFDS", "mean log10 Kd (nM)": "not detected", "seen in": "0/3", "control signals": "2/9"}
{"CDR-H1": "GFTLNSYGIS", "CDR-H2": "VIYSDGRRTFYGSSVK", "CDR-H3": "GRAITTFDS", "mean log10 Kd (nM)": "not detected", "seen in": "0/3", "control signals": "0/9"}
{"CDR-H1": "GFTLNSYGIS", "CDR-H2": "VIYSDGRNTFYGDSFK", "CDR-H3": "GRAIGTFDS", "mean log10 Kd (nM)": "not detected", "seen in": "0/3", "control signals": "2/9"}
{"CDR-H1": "GFTLNSYMIS", "CDR-H2": "VIYSDGRRTFYGDSVK", "CDR-H3": "IRAAGVFDS", "mean log10 Kd (nM)": "not detected", "seen in": "0/3", "control signals": "0/9"}
{"CDR-H1": "GFTLNSYGIS", "CDR-H2": "VIYSDGRDTFYGHSVK", "CDR-H3": "GRAAGTFDS", "mean log10 Kd (nM)": "3.90", "seen in": "3/3", "control signals": "2/9"}
{"CDR-H1": "GFTLNSYGIS", "CDR-H2": "VIYSDGRRTQRGDSVK", "CDR-H3": "DRAAGTFDS", "mean log10 Kd (nM)": "5.18", "seen in": "1/3", "control signals": "4/9"}
{"CDR-H1": "GFTFNSYGIS", "CDR-H2": "VIYSDGRRTFAGDSVK", "CDR-H3": "GRAAGTFGS", "mean log10 Kd (nM)": "not detected", "seen in": "0/3", "control signals": "0/9"}
{"CDR-H1": "GFTLNDYGIS", "CDR-H2": "VMYSDGRRTFYGDSVK", "CDR-H3": "TRAAGTFDS", "mean log10 Kd (nM)": "4.24", "seen in": "1/3", "control signals": "5/9"}
{"CDR-H1": "GFTLNSYGIS", "CDR-H2": "VIYSDGRYTFYHDLVK", "CDR-H3": "GRAAGTFDS", "mean log10 Kd (nM)": "3.07", "seen in": "1/3", "control signals": "2/9"}
{"CDR-H1": "GFTLNSYGIS", "CDR-H2": "VIYSDGRRTKYGDSVK", "CDR-H3": "GYAAGTFDS", "mean log10 Kd (nM)": "3.14", "seen in": "3/3", "control signals": "0/9"}
{"CDR-H1": "HFTLNSYGIS", "CDR-H2": "VIYSDGRRTFYGDSVV", "CDR-H3": "GRAAGTFDS", "mean log10 Kd (nM)": "2.16", "seen in": "1/3", "control signals": "0/9"}
{"CDR-H1": "GFTLNSYGIS", "CDR-H2": "VIYSDPRQTFWGDSVK", "CDR-H3": "GRAAGTFDS", "mean log10 Kd (nM)": "6.12", "seen in": "2/3", "control signals": "2/9"}
{"CDR-H1": "GFTLNSYGIS", "CDR-H2": "VIYSDGRRTFYGDSVK", "CDR-H3": "GRAPGTFDP", "mean log10 Kd (nM)": "0.89", "seen in": "3/3", "control signals": "3/9"}
{"CDR-H1": "GFTLNSYGIS", "CDR-H2": "VIYSDGRRTFYGDSVK", "CDR-H3": "GEAAGTLLS", "mean log10 Kd (nM)": "not detected", "seen in": "0/3", "control signals": "0/9"}
{"CDR-H1": "GMTLNSYGIS", "CDR-H2": "VIYSDGRRTFYGDSLK", "CDR-H3": "GRAAGTQDS", "mean log10 Kd (nM)": "4.68", "seen in": "2/3", "control signals": "5/9"}
{"CDR-H1": "GFTANSYGIL", "CDR-H2": "VIYSDGRRTFYGDSVK", "CDR-H3": "CRAAGTFDS", "mean log10 Kd (nM)": "not detected", "seen in": "0/3", "control signals": "0/9"}
{"CDR-H1": "GFTLNSYGII", "CDR-H2": "WIYSDGTRTFYGDSVK", "CDR-H3": "GRAAGTFDS", "mean log10 Kd (nM)": "not detected", "seen in": "0/3", "control signals": "3/9"}
{"CDR-H1": "GFYLNSYGIS", "CDR-H2": "VITSDGRRTFYGDSVK", "CDR-H3": "GRAAGQFDS", "mean log10 Kd (nM)": "not detected", "seen in": "0/3", "control signals": "1/9"}
{"CDR-H1": "GFTLCSWGIS", "CDR-H2": "VIYSDGRLTFYGDSVK", "CDR-H3": "GRAAGTFDS", "mean log10 Kd (nM)": "not detected", "seen in": "0/3", "control signals": "0/9"}
{"CDR-H1": "GFRLNSYGIS", "CDR-H2": "VIYSDGRMTFYGDSVK", "CDR-H3": "GRARGTFDS", "mean log10 Kd (nM)": "not detected", "seen in": "0/3", "control signals": "0/9"}
{"CDR-H1": "GFTRNSYGIS", "CDR-H2": "VIYSDGRRTFQGHSVK", "CDR-H3": "GRAAGTFDS", "mean log10 Kd (nM)": "not detected", "seen in": "0/3", "control signals": "1/9"}
{"CDR-H1": "GFTLNSYGIS", "CDR-H2": "VIYSMGRRTFYGDSVK", "CDR-H3": "GRAANTFIS", "mean log10 Kd (nM)": "4.09", "seen in": "1/3", "control signals": "2/9"}
{"CDR-H1": "GHTENSYGIS", "CDR-H2": "VIYSDGRRTFYGDSVK", "CDR-H3": "GRSAGTFDS", "mean log10 Kd (nM)": "3.01", "seen in": "1/3", "control signals": "0/9"}
{"CDR-H1": "GFTLNKYGIS", "CDR-H2": "VIYSDGRRTFYGCSVK", "CDR-H3": "GRAAGTFDS", "mean log10 Kd (nM)": "3.05", "seen in": "1/3", "control signals": "1/9"}
{"CDR-H1": "GFTLNSYGIS", "CDR-H2": "VIYADGKRTFYGNSVK", "CDR-H3": "GRAAGTFDS", "mean log10 Kd (nM)": "-0.03", "seen in": "3/3", "control signals": "0/9"}

Excerpt, the first 3 entries:

{"CDR-H1": "GFTLNSYGTS", "CDR-H2": "VIYSIGRRTFYGDSVK", "CDR-H3": "GRAAGTFAS", "mean log10 Kd (nM)": "2.83", "seen in": "1/3", "control signals": "1/9"}
{"CDR-H1": "GFTQNSYGIS", "CDR-H2": "VIYSDGRRTFYGDSVT", "CDR-H3": "RRAAGTFDS", "mean log10 Kd (nM)": "4.44", "seen in": "1/3", "control signals": "0/9"}
{"CDR-H1": "GFTLNSYGIA", "CDR-H2": "VIYSDGRRTFYGDSVK", "CDR-H3": "GRAAPTFDD", "mean log10 Kd (nM)": "4.58", "seen in": "3/3", "control signals": "5/9"}

Parent in this assay: reference entry 0.65, copy in this library 4.11 (one replicate of three).